In the library only some 0.92% were active in any assay of this set; here they are far more common.
miR-21 reporter – raises the signal of a miR-21 reporter | HeLa miR-21 FLuc reporter, luciferase, 48 h | Potency, µM (doses to about 38.3 µM), for the others: at the highest dose reporter change, positive = more light | 340,000 tested, under 10 active | AID 2288; active = well fitted rising curve with a large enough effect; inconclusive = small, poorly fitted or top-dose-only effect; inactive = no such curve, though single readings can be large or run the other way;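 also: % of control where 0% means no effect; miR-21 action dims this reporter so a rising signal means less miR-21 action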
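Luminescence from a firefly luciferase reporter carrying a miR-21 binding site downstream, stably expressed under a CMV promoter in HeLa cells that make miR-21 endogenously, reports miRNA modulation after 48 h compound exposure up to approximately 40uM final.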
B2AR arrestin – beta2AR (human) beta-arrestin recruitment activity; P07550; beta-arrestin recruitment to beta2AR, cell-based reporter; Potency, µM (highest dose often 46.1 µM), inactives show at the highest dose activation, usual class: activators; hit rate 0.02% among 330,000;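 note: potency is the fitted concentration of half-maximal effect; 0% = DMSO controls and full agonism = EC100 isoproterenol or metaproterenol; nearly all actives have a fitted effect of over 65% in size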
Giardia kill – Giardia lamblia killing; Giardia lamblia trophozoite viability; activity change, % at 7.66 µM, hits read low; hit rate 0.15% among 340,000; in the data active = activity change below about -80%; inconclusive = between about -30% and that limit;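 note: parasites exposed to compound for two days anaerobically before the ATP read; % is set by controls: 0 for no effect and ±100 for the full control effect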
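Anaerobic 48 hrs incubation at 37 deg C of 100 trophozoites/well with test compounds; ATPLite 1-Step luminescence, 15-30 min RT, reports cellular ATP as viability.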
FBPA coupling cs – counter-screen for Giardia aldolase inhibitors: coupling enzyme system; activity change, negative = inhibition, % at 58.2 µM, hits read low; hit rate 0.67% among 290,000; coupling enzyme system counterscreen, AmpLite Red fluorescence; in the data active = activity change below about -30%; note: % is set by controls: 0 for no effect and ±100 for the full control effect
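Activity here indicates interference with the coupling reaction, not aldolase inhibition. Compounds at 57.5 uM final met coupling enzymes for 10 min at RT; substrate and AmpLite Red detection followed, with a 525/598 nm fluorescence read after 20 min.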
uPA generation – cell surface uPA generation inhibition. Potency, µM (titrated, usually from 38.3 µM), without a hit: at the top dose activity change, negative = inhibition, usual class: inhibitors. cell surface uPA generation assay, qHTS. hit rate 0.31% among 330,000. AID 540303; active = well fitted inhibition curve with a large enough effect; inconclusive = small, poorly fitted or top-dose-only effect; inactive = no such curve, though single readings can be large or run the other way; tested in mouse RAW 264.7 cells; note: potency is the fitted concentration of half-maximal effect; % is set by controls: 0 for no effect and ±100 for the full control effect; nearly all actives have a fitted effect of over 55% in size
GALK inhibitor – blocks human galactokinase activity. P51570. Purified GALK, Kinase-Glo residual ATP luminescence. hit rate 0.007% among 270,000. Potency, µM (highest dose often 57.5 µM), for the others: top-dose activity change, negative = inhibition, most hits filed as inhibitors. AID 1868; note: potency is the fitted concentration of half-maximal effect; % is set by controls: 0 for no effect and ±100 for the full control effect
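Luminescence from leftover ATP (Ultra-Glo luciferase/luciferin) served as read-out after a 1 h room-temperature reaction of 5 nM GALK with 35 uM ATP and 100 uM galactose.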
Starred values were filed as active, the others as inactive; ? = inconclusive; / = no result given. Unless noted, calls come from the whole dose curve; as a rule, active = well fitted curve in the direction sought with a large enough effect; inconclusive = small, poorly fitted or top-dose-only effect, or another doubt; inactive = no such curve, though single readings can be large; an effect the other way counts as inactive or inconclusive.

no. | canonical_smiles | miR-21 reporter | B2AR arrestin | Giardia kill
1 | Cn1cc(-c2cc3n(n2)CCC(=O)N3CCCC(=O)Nc2ccccc2Cl)c2ccccc21 | 9.4% | / | /
2 | O=C1Nc2ccccc2C1=Nc1cccc([N+](=O)[O-])c1 | -4.5% | -0.9% | -7.0
3 | NC(=O)c1ccc(N=C2C(=O)Nc3ccc([N+](=O)[O-])cc32)cc1 | -6.1% | 0.0% | -5.6
4 | Cn1c(N/N=C/c2cc3ccccc3nc2Cl)nc2ccccc21 | 10.7% | -1.2% | -87.8*
5 | NC(=O)C1CCN(C2=C(NS(=O)(=O)c3ccc(Cl)cc3)C(=O)c3ccccc3C2=O)CC1 | 9.0% | -0.9% | 4.5
6 | O=C1C(NS(=O)(=O)c2cccs2)=C(N2CCN(c3ccccc3)CC2)C(=O)c2ccccc21 | -14.9% | 0.0% | -17.5
7 | CC(=O)Nc1ccc(N2CCCC2)cc1 | -2.2% | 0.2% | -12.5
8 | CC(=O)Nc1ccc(S(=O)(=O)NC2=C(N3CCN(c4ccc(F)cc4)CC3)C(=O)c3ccccc3C2=O)cc1 | ? | 0.0% | 12.1

no. | FBPA coupling cs | uPA generation | GALK inhibitor
1 | / | / | /
2 | -1.2 | -15.1% | /
3 | -30.0* | -8.1% | 2.8%
4 | -1.7 | -7.7% | 2.5%
5 | -30.2* | -10.6% | 1.2%
6 | -32.9* | 4.4% | 1.1%
7 | -31.5* | -4.2% | -2.3%
8 | -55.9* | -7.2% | -2.4%

More entries.
no. | canonical_smiles | miR-21 reporter | B2AR arrestin | Giardia kill
9 | Cc1cccc(N2CCN(C(=O)c3cc4ccc5cccnc5c4[nH]3)CC2C)c1 (stereo unspecified) | 0.3% | / | /
10 | CCc1ccc(CNC(=O)c2c3c(nc4ccccc24)C(=O)N(C2CCCCC2)C3)cc1 | 10.6% | / | /
11 | CCOc1ccc(-c2cn3c(n2)sc2cc(C(=O)NCCC4=CCCCC4)ccc23)cc1 | 0.1% | / | /
12 | COC(=O)C1CCN(C2=C(NS(=O)(=O)c3ccc(Cl)cc3)C(=O)c3ccccc3C2=O)CC1 | -5.4% | -0.5% | -5.5
13 | CC1CCCN(C2=C(NS(=O)(=O)c3ccc(Cl)cc3)C(=O)c3ccccc3C2=O)C1 (stereo unspecified) | -26.2% | 4.0% | 26.3
14 | Cc1ccc(S(=O)(=O)NC2=C(N3CCN(Cc4ccccc4)CC3)C(=O)c3ccccc3C2=O)cc1 | -5.3% | 0.4% | -4.9
15 | CCCn1c2ccccc2c2cnn(CC(=O)N(CCCOC(C)C)Cc3ccco3)c(=O)c21 | 19.4% | / | /
16 | O=C(Nc1nnc(-c2ccco2)o1)c1ccc([N+](=O)[O-])s1 | -4.6% | -0.1% | -80.9*

no. | FBPA coupling cs | uPA generation | GALK inhibitor
9 | / | / | /
10 | / | / | /
11 | / | / | /
12 | -25.0 | -0.9% | -1.4%
13 | -40.0* | 2.6% | 1.5%
14 | -34.0* | -6.2% | 2.0%
15 | / | / | /
16 | 2.3 | -7.8% | 7.0%

Next compounds:
no. | canonical_smiles | miR-21 reporter | B2AR arrestin | Giardia kill
17 | CCC1(C)NC(c2ccc3c(c2)OCO3)=CC(c2ccccc2O)N1 (stereo unspecified) | / | / | -29.5
18 | Cc1ccsc1C1C2=C(CCCC2=O)Nc2ncnn21 (stereo unspecified) | -8.7% | -0.4% | -8.2
19 | Cc1ccsc1C1C2=C(CC(C)(C)CC2=O)Nc2ncnn21 (stereo unspecified) | -7.4% | 0.3% | -12.0
20 | O=C(O)c1ccc(NC2=C/C(=N/S(=O)(=O)c3ccccc3)c3ccccc3C2=O)cc1 | ? | -0.1% | -4.0
21 | Cc1cc(C)c(S(=O)(=O)/N=C2\C=C(Nc3ccc(C(=O)O)cc3)C(=O)c3ccccc32)c(C)c1 | ? | -1.7% | -4.8
22 | CCCCOc1ccc(S(=O)(=O)Nc2ccc(-c3ccc(N4CCC(C)CC4)nn3)cc2)cc1 | -22.0% | / | /
23 | COc1cccc(CNC(=O)c2ccc3c(c2)nc2n3CCOC2)c1OC | -18.3% | / | /
24 | CN(C)S(=O)(=O)c1ccc(C(=O)Nc2nnc(SCC(=O)NCC3CCCO3)s2)cc1 (stereo unspecified) | -6.4% | -1.0% | -29.7

no. | FBPA coupling cs | uPA generation | GALK inhibitor
17 | / | / | /
18 | -30.5* | 5.7% | 0.2%
19 | -2.4 | 2.7% | 2.9%
20 | -46.7* | -7.1% | ?
21 | -41.7* | -4.6% | -2.3%
22 | / | / | /
23 | / | / | /
24 | / | 7.94µM* | -2.4%

Random excerpt: 3 compounds from above
no. | canonical_smiles | miR-21 reporter | B2AR arrestin | Giardia kill
18 | Cc1ccsc1C1C2=C(CCCC2=O)Nc2ncnn21 (stereo unspecified) | -8.7% | -0.4% | -8.2
20 | O=C(O)c1ccc(NC2=C/C(=N/S(=O)(=O)c3ccccc3)c3ccccc3C2=O)cc1 | ? | -0.1% | -4.0
24 | CN(C)S(=O)(=O)c1ccc(C(=O)Nc2nnc(SCC(=O)NCC3CCCO3)s2)cc1 (stereo unspecified) | -6.4% | -1.0% | -29.7

no. | FBPA coupling cs | uPA generation | GALK inhibitor
18 | -30.5* | 5.7% | 0.2%
20 | -46.7* | -7.1% | ?
24 | / | 7.94µM* | -2.4%

Further records
no. | canonical_smiles | miR-21 reporter | B2AR arrestin | Giardia kill
25 | CC(C)(C)c1ccc(C(=O)Nc2nnc(SCC(=O)NCC3CCCO3)s2)cc1 (stereo unspecified) | -30.9% | -0.2% | -92.6*
26 | Cc1nc(SCC(=O)NCC2CCCO2)c2c3c(sc2n1)CCC3 (stereo unspecified) | -6.5% | 0.0% | -4.7
27 | CCOc1ccc(C(=O)Nc2nnc(SCC(=O)NCC3CCCO3)s2)cc1 (stereo unspecified) | -2.7% | 0.5% | -94.3*
28 | O=C(CSc1nnc(NC(=O)c2cccc(F)c2)s1)NCC1CCCO1 (stereo unspecified) | -17.3% | 0.5% | -12.5
29 | Cc1nc(SCC(=O)NCC2CCCO2)c2cc(-c3ccccc3)sc2n1 (stereo unspecified) | / | -0.2% | 3.3
30 | O=C(CSc1nnc(NC(=O)c2c(F)cccc2F)s1)NCC1CCCO1 (stereo unspecified) | / | 0.4% | 9.6
31 | CC1CC=CC2C1C(=O)N(Cc1ccccc1)C2c1ccc(-c2ccc(N(C)C)cc2)cc1F (stereo unspecified) | / | / | 0.9
32 | Cc1ccc(NC(=O)CCCN2C(=O)COc3ccc(C)cc32)c(C)c1 | -1.5% | / | /

no. | FBPA coupling cs | uPA generation | GALK inhibitor
25 | / | 0.891µM* | 7.6%
26 | / | -15.6% | -3.8%
27 | 3.7 | ? | -5.2%
28 | / | ? | -1.2%
29 | / | 8.91µM* | /
30 | / | -4.3% | /
31 | -3.5 | / | /
32 | / | / | /

Further structures follow:
no. | canonical_smiles | miR-21 reporter | B2AR arrestin | Giardia kill
33 | O=c1[nH]c2c(s1)C(c1ccco1)C1C3CCC(C3)C1S2 (stereo unspecified) | 0.2% | 0.3% | -4.6
34 | CC1(C)CC(C(=O)Nc2ccccc2)C(=O)O1 (stereo unspecified) | / | / | 5.6
35 | C[C@]1(O)CC(=O)C=C[C@H]1Nc1ccccc1 | / | / | 4.1
36 | O=C(COC(=O)Cn1cnc2ccccc21)Nc1ccc2c(c1)C(=O)c1ccccc1C2=O | -63.4% | 10.1% | -6.4
37 | CCC12CN3CC(C)(CN(C1)C3c1c(C)n(C)c3ccccc13)C2=O (stereo unspecified) | 6.0% | / | /
38 | O=C(NCC(c1ccco1)N1CCc2ccccc21)c1ccccc1F (stereo unspecified) | / | -0.1% | -17.1
39 | O=C(CCc1ccccc1)NCC(c1ccco1)N1CCc2ccccc21 (stereo unspecified) | / | 0.0% | -7.4
40 | CC(C)(C)C(=O)C1=C(O)C(=O)N(Cc2ccccc2)C1c1ccccc1Cl (stereo unspecified) | 10.4% | -0.3% | 28.7

no. | FBPA coupling cs | uPA generation | GALK inhibitor
33 | -44.1* | 1.7% | -0.2%
34 | / | 1.9% | /
35 | / | 8.91µM* | /
36 | -0.9 | 11.2µM* | -0.2%
37 | / | / | /
38 | / | -2.4% | /
39 | / | 3.16µM* | /
40 | 10.7 | 10µM* | 0.3%

Following part.
no. | canonical_smiles | miR-21 reporter | B2AR arrestin | Giardia kill
41 | COc1ccc(-c2cn3ccccc3n2)cc1 | 6.6% | 0.2% | ?
42 | O=C(Nc1ccc(-c2cn3ccccc3n2)cc1)c1ccc(Cl)cc1 | -5.7% | -0.1% | 7.1
43 | Clc1ccc(-c2cn3ccccc3n2)cc1 | -14.2% | -0.8% | 0.6
44 | Oc1cccc(/C=N/Nc2cc(N3CCCC3)nc(N3CCCC3)n2)c1 | 3.6% | -0.3% | -4.5
45 | Oc1ccc(/C=N/Nc2cc(N3CCOCC3)nc(N3CCOCC3)n2)cc1 | / | / | 6.7

no. | FBPA coupling cs | uPA generation | GALK inhibitor
41 | -6.7 | 2µM* | 11.8%
42 | 0.8 | 7.8% | /
43 | -6.3 | 8.91µM* | 3.3%
44 | -32.5* | 5.3% | -0.4%
45 | / | 1.9% | /

2 entries from above, with values under each structure.
Order of results – miR-21 reporter | B2AR arrestin | Giardia kill | FBPA coupling cs | uPA generation | GALK inhibitor
10: CCc1ccc(CNC(=O)c2c3c(nc4ccccc24)C(=O)N(C2CCCCC2)C3)cc1
    10.6% | / | / | / | / | /
41: COc1ccc(-c2cn3ccccc3n2)cc1
    6.6% | 0.2% | ? | -6.7 | 2µM* | 11.8%

Screening results from PubChem.
